In assay [1] the target is IgG (clone AMY-33)-A-beta fibril interaction (Homo sapiens, UniProt P05067). In words: ELISA-based inhibition of anti-A-beta IgG (clone AMY-33) binding to A-beta fibrils. Conditions: same conditions as clone 6E10 assay. A general note: ELISA stands for enzyme-linked immunosorbent assay.
In assay [2] the target is binding of the anti-A-beta IgG (clone 6E10) to the A-beta fibrils (Homo sapiens, UniProt P05067). In words: ELISA-based inhibition of anti-A-beta IgG (clone 6E10) binding to ThT-coated A-beta fibrils.

By UniProt entry, the sequences of proteins in these tests, tags left out. Residues count along the entry.
UniProt P05067, 672-713 limits assumed: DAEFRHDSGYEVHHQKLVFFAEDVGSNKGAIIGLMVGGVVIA

Where two headings read alike, the source gives them in different places.

As for `Cc1ccc2c(c1)sc(-c1ccc(N(C)C)cc1)[n+]2C.[Cl-]` [ThT, Thioflavin T], the IC50 (in general, the concentration needed to halve the response being measured) is 0.4 µM in assay [1]; roughly 1 µM in assay [2] (read-out: IC50, 0.3 μM solution of A-beta peptide in the control procedure, 0.3 μM A-beta peptide, preincubation control procedure, data not shown); 60 µM in assay [2] (read-out: IC50, fibrils incubated with ThT prior to depositing into the wells, A-beta fibrils 1.3 μM preincubated with ThT, clone 6E10); 5 µM in assay [2] (read-out: IC50 for the binding of the anti-A-beta IgG to the A-beta fibrils, clone 6E10, 0.16 μg mL−1, fibrils deposited from solutions containing 1.3 μM A-beta peptide, then incubated with ThT).

The record behind these values is patent publication US8741883B2, “Compounds and methods for the diagnosis and treatment of amyloid associated diseases” (The Regents of the University of California—San Diego, priority 2005, dated 2014).
